Tests used:
[1] = human, in vivo, 50 mg
[2] = in vivo, po, 150 mg; cited from earlier work

Substance: 25-O-desacetylrifabutin
- expected Cmax [1]: ~9 ng/mL
- Cmax [2]: 27 ng/mL

Reference: patent US11931463B2, “All-in-one fixed-dose combination for treating Helicobacter pylori infection” (RedHill Biopharma Ltd., priority 2013, dated 2024)
